Assay results taken from patent US7510847B2, “Kidney-specific urate transporter and gene thereof” (Human Cell Systems, Inc., priority 2001, dated 2009).

Amino acid sequences for entries named in this document (tags omitted). A change or cut given only in a name is not applied to a line headed by its entry.
UniProt Q96S37: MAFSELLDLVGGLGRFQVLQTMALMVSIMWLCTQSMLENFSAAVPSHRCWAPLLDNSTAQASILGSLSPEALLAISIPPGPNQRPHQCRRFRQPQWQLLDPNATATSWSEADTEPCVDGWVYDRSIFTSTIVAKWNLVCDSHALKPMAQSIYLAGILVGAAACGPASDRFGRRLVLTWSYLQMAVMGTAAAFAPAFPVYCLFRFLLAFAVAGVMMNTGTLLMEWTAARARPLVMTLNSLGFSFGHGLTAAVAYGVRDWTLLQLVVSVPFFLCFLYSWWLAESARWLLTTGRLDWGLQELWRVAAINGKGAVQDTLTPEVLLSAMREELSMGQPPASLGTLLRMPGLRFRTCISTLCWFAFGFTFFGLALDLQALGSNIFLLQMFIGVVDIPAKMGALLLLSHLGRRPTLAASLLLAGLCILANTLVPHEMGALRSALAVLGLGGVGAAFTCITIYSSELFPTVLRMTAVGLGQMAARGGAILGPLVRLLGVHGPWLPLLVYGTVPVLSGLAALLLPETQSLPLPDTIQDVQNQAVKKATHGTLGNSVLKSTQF

What was measured:
URAT1 [1] = molecular target: T1, URAT1 (Homo sapiens, UniProt Q96S37); assay: inhibition of [14C] uric acid uptake by oocytes injected with URAT1 cRNA; conditions: pH 7.4
URAT1 [2] = molecular target: T1, URAT1; assay: uric acid uptake by URAT1 oocytes after preincubation with or pre-injection of organic acids (exchange substrate study); type: cell-based; design: expressed in transfected cells; host or cells: Xenopus laevis oocytes ("platanna") injected with URAT1 cRNA
Description: Therefore, 100 nl of 100 mM non-radiolabeled L-lactic acid was precedently injected in the oocytes, and then the uptake of the radiolabeled uric acid was observed (FIG. 7).

ketoglutaric acid
inhibition of transport/uptake of [14C] uric acid by URAT1 (URAT1 [1]): did not inhibit
uptake of radiolabeled uric acid after precedent injection of organic acid into oocytes (URAT1 [2]): no change
uptake of uric acid after preincubation of oocytes with organic acid (URAT1 [2]): not facilitated
